The test has as its target Sucrase-isomaltase, intestinal (Rattus norvegicus, UniProt P23739). The test is described as follows: Inhibition of rat intestinal Sucrase using sucrose as substrate assessed as glucose release after 40 mins by glucose oxidase method.

The chains behind the UniProt entries cited, without tags or fusion partners. Residues count along the entry.
UniProt P23739, 1014-1841 limits assumed: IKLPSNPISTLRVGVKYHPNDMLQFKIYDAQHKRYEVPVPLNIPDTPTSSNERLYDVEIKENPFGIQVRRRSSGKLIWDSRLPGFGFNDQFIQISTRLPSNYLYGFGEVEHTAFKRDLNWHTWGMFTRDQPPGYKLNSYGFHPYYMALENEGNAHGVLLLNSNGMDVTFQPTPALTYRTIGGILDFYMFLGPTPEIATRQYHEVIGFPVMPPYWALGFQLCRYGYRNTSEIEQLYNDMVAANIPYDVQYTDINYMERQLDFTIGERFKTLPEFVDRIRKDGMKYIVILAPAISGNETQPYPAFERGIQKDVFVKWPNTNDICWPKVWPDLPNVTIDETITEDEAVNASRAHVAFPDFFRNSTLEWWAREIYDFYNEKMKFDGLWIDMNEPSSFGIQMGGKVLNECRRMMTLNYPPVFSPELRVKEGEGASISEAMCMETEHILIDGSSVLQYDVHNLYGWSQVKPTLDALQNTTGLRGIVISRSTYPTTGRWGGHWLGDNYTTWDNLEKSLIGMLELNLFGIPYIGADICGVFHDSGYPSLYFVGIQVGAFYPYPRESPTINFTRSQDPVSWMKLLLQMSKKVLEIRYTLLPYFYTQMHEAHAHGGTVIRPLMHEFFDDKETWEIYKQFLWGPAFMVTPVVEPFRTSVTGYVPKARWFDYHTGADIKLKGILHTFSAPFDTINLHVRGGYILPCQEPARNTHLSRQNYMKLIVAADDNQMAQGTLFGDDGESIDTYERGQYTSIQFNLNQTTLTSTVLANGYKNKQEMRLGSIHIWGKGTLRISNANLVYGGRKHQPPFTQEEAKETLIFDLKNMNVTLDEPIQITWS
UniProt P23739, 1-1013 limits assumed: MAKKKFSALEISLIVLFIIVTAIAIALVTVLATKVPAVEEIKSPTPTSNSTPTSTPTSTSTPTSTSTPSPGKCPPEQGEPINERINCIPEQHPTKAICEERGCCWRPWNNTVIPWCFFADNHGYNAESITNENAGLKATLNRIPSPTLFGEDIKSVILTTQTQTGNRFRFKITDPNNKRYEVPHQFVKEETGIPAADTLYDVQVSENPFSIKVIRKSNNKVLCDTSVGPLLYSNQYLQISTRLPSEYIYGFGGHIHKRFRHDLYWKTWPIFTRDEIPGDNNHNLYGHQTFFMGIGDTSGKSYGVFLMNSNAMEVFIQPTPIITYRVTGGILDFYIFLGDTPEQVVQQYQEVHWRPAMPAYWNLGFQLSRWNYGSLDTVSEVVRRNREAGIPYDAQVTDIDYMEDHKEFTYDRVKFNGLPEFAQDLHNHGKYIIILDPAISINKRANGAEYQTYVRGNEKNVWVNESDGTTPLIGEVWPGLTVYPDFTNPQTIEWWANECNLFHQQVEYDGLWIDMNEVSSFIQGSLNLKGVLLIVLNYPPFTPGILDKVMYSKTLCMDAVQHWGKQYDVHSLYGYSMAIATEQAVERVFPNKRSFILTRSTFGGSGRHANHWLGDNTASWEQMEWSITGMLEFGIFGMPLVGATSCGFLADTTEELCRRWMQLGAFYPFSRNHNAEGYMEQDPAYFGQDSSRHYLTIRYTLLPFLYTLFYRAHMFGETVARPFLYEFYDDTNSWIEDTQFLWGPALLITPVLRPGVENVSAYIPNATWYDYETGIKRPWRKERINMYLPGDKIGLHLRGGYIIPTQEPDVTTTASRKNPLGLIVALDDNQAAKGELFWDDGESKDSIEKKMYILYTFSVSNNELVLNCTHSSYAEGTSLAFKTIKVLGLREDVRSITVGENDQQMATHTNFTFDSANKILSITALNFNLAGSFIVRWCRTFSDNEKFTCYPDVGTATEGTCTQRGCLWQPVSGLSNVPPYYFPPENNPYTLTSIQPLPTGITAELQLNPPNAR

For the molecule `C[C@H]1O[C@H](O[C@H]2[C@H](O)[C@@H](O)[C@@H](O[C@H]3[C@H](O)[C@@H](O)C(O)O[C@@H]3CO)O[C@@H]2CO)[C@H](O)[C@@H](O)[C@@H]1N[C@H]1C=C(CO)[C@@H](O)[C@H](O)[C@H]1O` (stereo partly specified) [ACARBOSE], the IC50 worked out at 26 µM.

Values taken from ChEMBL document CHEMBL3621193, “New arylalkanones from Horsfieldia macrobotrys, effective antidiabetic agents concomitantly inhibiting α-glucosidase and free radicals” (Bioorg Med Chem Lett, 2015).
